Common to all, as to type: cell-based
In experiment [1] the test system is DNA fragmentation in A549 cells. The experiment is described as follows: DNA Fragmentation Assay (Cell Death Detection ELISA). The settings on record: Homo sapiens; for Emax at 1 µM: A549, read-out: % Increase Relative to Staurosporin. (In general: In an ELISA, binding on a coated surface is turned into a signal by an enzyme label.)
For a further experiment, the system named is A549 cells. Briefly: A549 Cell Proliferation Assay (MTT). The settings on record: Homo sapiens. On the procedure:
Cell proliferation is determined using the MTT assay. The MTT cell proliferation assay is a colorimetric assay system which measures the reduction of a tetrazolium component (MTT) into an insoluble formazan product by the mitochondria of viable cells. After incubation of the cells with the MTT reagent, DMSO is added to solubilize the colored crystals and the samples read at a wavelength of 560 nm. The amount of color produced is directly proportional to the number of viable cells. […] L11939) was prepared at 5 mg/ml in PBS. […] Plates were read on the PolarStar plate reader at 560 nm. […] IC50 values were calculated in GraphPad Prism using non-linear regression curve fitting. All statistical analyses was done either in GraphPad Prism or Microsoft Excel. […] Briefly, compounds are added to cells plated in 96-well plates. The cells are allowed to grow for 72 hours before MTT treatment. The effect of the compounds on cell proliferation is analyzed using GraphPad Prism. A549 cells are a non-small cell lung cancer cell line that have wild type EGFR and p53 but have point mutations in KRAS gene which transform it into an oncogene. […] SH30071.03, lot no. ATB31500), 1% Pen Strep (Gibco, cat no. […] On day 2, working solutions of compounds at 200× were prepared. […] Plates were incubated for 72 hours before analyzing them with MTT (as described above).

The next experiment concerns H1975 cells. The experiment is described as follows: H1975 Cell Proliferation Assay (MTT). The following applies: Homo sapiens, NCI-H1975, 72 h, read-out: IC50 Value (μM) H1975 Cells. How it is done:
(§1) Cell proliferation is determined using the MTT assay. The MTT cell proliferation assay is a colorimetric assay system which measures the reduction of a tetrazolium component (MTT) into an insoluble formazan product by the mitochondria of viable cells. After incubation of the cells with the MTT reagent, DMSO is added to solubilize the colored crystals and the samples read at a wavelength of 560 nm. The amount of color produced is directly proportional to the number of viable cells.
3-(4,5-Dimethylthiazol-2-yl)-2,5-diphenyltetrazolium Bromide (MTT) dye (Aesar, cat no. L11939) was prepared at 5 mg/ml in PBS. To each well, 20 μl of MTT solution was added to existing media and mixed thoroughly with 5 mins of gentle shaking at room temperature. Plates were incubated at 37° C., 5% CO2 for approximately 2 hrs. After 2-3 hrs incubation, media was aspirated out and plates were patted dry. […] Plates were read on the PolarStar plate reader at 560 nm. Percent (%) inhibition was calculated as 100%−(OD560 nm experimental-blank)×100%/OD560 nm control-blank. […] IC50 values were calculated in GraphPad Prism using non-linear regression curve fitting. […]
Briefly, compounds are added to cells plated in 96-well plates. […] The effect of the compounds on cell proliferation is analyzed using GraphPad Prism.

Another experiment relates to HT-29 cells. Briefly: HT-29 Cell Proliferation Assay (MTT). The settings on record: Homo sapiens, HT-29, 72 h, read-out: IC50 Value (μM) HT-29 Cells. How it is done: as §1
3-(4,5-Dimethylthiazol-2-yl)-2,5-diphenyltetrazolium Bromide (MTT) dye (Aesar, cat no. L11939) was prepared at 5 mg/ml in PBS. […] Plates were read on the PolarStar plate reader at 560 nm. Percent (%) inhibition was calculated as 100%−(OD560 nm experimental-blank)×100%/OD560 nm control-blank. […] IC50 values were calculated in GraphPad Prism using non-linear regression curve fitting. […]
Briefly, compounds are added to cells plated in 96-well plates. […] The effect of the compounds on cell proliferation is analyzed using GraphPad Prism. […]
For the HT-29 cell proliferation assay, on day 1, HT-29 cells are seeded at 3,000 cells/well in 100 μl media containing 10% FBS, 1× Pen-Strep, and 1× L-Glutamine in 96 well, tissue culture-treated plates. […] On day 5, plates were analyzed for cell growth using the MTT assay.

The mark [2] stands for this setting: A549, 72 h, read-out: IC50 Value (μM) A549 Cells.

Where two headings read alike, the source gives them in different places.

For the compound `Cc1nc(NC(c2ccc(Cl)cc2)c2ccc3cccnc3c2O)ccc1Cl` (stereo not drawn) [AD4-13161], in experiment [1] (A549, 24 h, read-out: % Increase over Background), the activation at 10 µM came out at 678%.
`Cc1cc(Cl)cnc1NC(c1cccc(Cl)c1Cl)c1ccc2cccnc2c1O` (stereo not drawn) [AD4-13147]: in experiment [1], the Emax at 1 µM came out at 49%.
In the case of `Oc1c(C(Nc2ccc(Cl)cn2)c2ccc(C(F)(F)F)cc2)ccc2cccnc12` (stereo not drawn) [AD4-13053], the IC50 in the experiment on A549 cells (setting [2]) and in the experiment with H1975 cells was 0.18 µM each time.
In the case of `Cc1nc(NC(c2ccc(Cl)c(Cl)c2)c2ccc3cccnc3c2O)c(Cl)cc1Cl` (stereo not drawn) [AD4-13202], the IC50 with A549 cells (setting [2]) is 0.09 µM; with A549 cells (A549, read-out: IC50, cell proliferation in A549 or H1975 cells), ≤ 0.1 µM; with H1975 cells, 0.72 µM; in the experiment on HT-29 cells, 2.3 µM.
With `Oc1c(C(Nc2cc(Cl)c(Cl)cn2)c2ccc(Cl)cc2Cl)ccc2cccnc12` (stereo not drawn) [AD4-13178], the Emax at 1 µM in experiment [1] amounted to 48%.

These data come from patent US9073858B2, “Methods of targeted drug development” (priority 2010, dated 2015).
